Results from patent US20190284192A1, “NITROGENOUS MACROCYCLIC COMPOUND, PREPARATION METHOD THEREFOR, PHARMACEUTICAL COMPOSITION AND APPLICATION THEREOF” (LUOXIN PHARMACEUTICAL (SHANGHAI) CO., LTD., priority 2016, published 2019).
Several values for one entry are separate records, joined by “and”; a condition that tells them apart may be missing. Equal entries are not always repeated.

Tested on: MV-4-11 subcutaneous xenograft tumor
Experiment: Anti-tumor efficacy in vivo, MV-4-11 subcutaneous xenograft model
Set-up: species or system BALB/c nude mice
Details: for P, tumor volume difference between the control group and the administrated group: Two-way Anova Bonferroni post-test

CCNC(=O)C[C@@H]1N=C(c2ccc(Cl)cc2)c2cc(OC)ccc2-n2c(C)nnc21 [GSK762]
T/C % (TRTV/CRTV, intragastric QD*14, ABBV-075 3, GSK762 15, 4009 10 mg/kg, 15th day): 60.33% | P, tumor volume difference between the control group and the administrated group (day 1 after administration, ABBV-075 3, GSK762 15, 4009 10 mg/kg): P > 0.05 | P, tumor volume difference between the control group and the administrated group (day 4 after administration, ABBV-075 3, GSK762 15, 4009 10 mg/kg): P > 0.05 | P, tumor volume difference between the control group and the administrated group (day 6 after administration, ABBV-075 3, GSK762 15, 4009 10 mg/kg): P > 0.05 | P, tumor volume difference between the control group and the administrated group (day 8 after administration, ABBV-075 3, GSK762 15, 4009 10 mg/kg): P > 0.05 | P, tumor volume difference between the control group and the administrated group (day 11 after administration, ABBV-075 3, GSK762 15, 4009 10 mg/kg): P < 0.05 (*) | P, tumor volume difference between the control group and the administrated group (day 13 after administration, ABBV-075 3, GSK762 15, 4009 10 mg/kg): P < 0.01 (**) | P, tumor volume difference between the control group and the administrated group (day 15 after administration, ABBV-075 3, GSK762 15, 4009 10 mg/kg): P < 0.001 (***) | tumor volume TGI (%) (from 11th to 15th day of administration, GSK762 15 mg/kg): less than 58% | Average tumor volume, Treatement starts 1st day (intragastric QD*14, ABBV-075 3, GSK762 15, 4009 10 mg/kg, 1st day): 137.82 ± 18.64 mm^3 | Tumor volume TGI (%) 4th day (intragastric QD*14, ABBV-075 3, GSK762 15, 4009 10 mg/kg, 4th day): 88.15% | Tumor volume TGI (%) 6th day (intragastric QD*14, ABBV-075 3, GSK762 15, 4009 10 mg/kg, 6th day): 65.11% | Tumor volume TGI (%) 8th day (intragastric QD*14, ABBV-075 3, GSK762 15, 4009 10 mg/kg, 8th day): 60.5% | Tumor volume TGI (%) 11th day (intragastric QD*14, ABBV-075 3, GSK762 15, 4009 10 mg/kg, 11th day): 51.86% | Tumor volume TGI (%) 13th day (intragastric QD*14, ABBV-075 3, GSK762 15, 4009 10 mg/kg, 13th day): 51.9% | Tumor volume TGI (%) 15th day (intragastric QD*14, ABBV-075 3, GSK762 15, 4009 10 mg/kg, 15th day): 46.58% | Average tumor volume, Treatement ends 15th day (intragastric QD*14, ABBV-075 3, GSK762 15, 4009 10 mg/kg, 15th day, 10 mg/kg): 617.02 mm^3 and 617.02 ± 131.69 mm^3
